Target: recombinant human LOX1 (lectin-type oxidized LDL receptor 1) (human)
Assay: BLI

- koff: 0.00972 s⁻¹
B1: recombinant human PCSK9 with 6x His tag (proprotein convertase subtilisin/kexin type-9) (natural protein)
chain: not shown
